Measured values from paper PMC4192597, “Antimicrobials, Stress and Mutagenesis” (PLoS Pathogens, 2014).

What was measured:
[1] = test system: E. coli stress response genes (strain MG1655); assay: Relative gene expression of stress response genes by quantitative real-time PCR; format: cell-based, Escherichia coli
Description: Preparation of each of the six treatments and the control samples was carried out by two operators on three consecutive days, thereby comprising three biological replicates for each of the six experimental and one control groups. To obtain the starting material for the experiment, a fresh bacterial culture was grown from a glycerol stock on Mueller-Hinton (MH) agar plates at 37°C for 18–24 hours. One well-isolated colony per biological replicate was used to inoculate 2 ml of liquid MH (Sigma) in a 10 ml sterile polypropylene tube and incubated at 37°C for 16 hours with mild shaking. The overnight (ON) culture was then diluted 1∶100 in MH, subdivided into seven 10 ml aliquots and incubated in 50 ml-Falcon tubes at 37°C for 2.5 hours at 220 rpm. When the OD600 of bacterial cultures reached 0.5–0.7, respective antibiotics and AMPs were added to a concentration to match with those used in the mutagenesis experiments. These bacterial cultures were incubated for 20 minutes at 37°C with gentle shaking. Two ml of bacterial cultures from each treatment and the control were collected, immediately centrifuged at 10000 g for 2 minutes and the supernatant was removed to stop the treatment. The bacterial pellet was then resuspended in 1 ml MH, followed by an addition of 1 ml of RNAprotect Bacteria Reagent (Qiagen), 5 minutes incubation and centrifugation at 10000 g for 2 minutes at room temperature. The supernatant was discarded and the bacterial pellet was immediately frozen and stored at −80°C until RNA extraction.
Total RNA was isolated using RNeasy kit (Qiagen) according to the manufacturer's instructions and eluted in 50 µl of RNase-free water. The nucleic acid yield and purity were determined by measuring the optical density at A260/280 using a Nanodrop spectrophotometer (Thermo Scientific). RNA samples were treated with TURBO DNase (Life Technologies). Briefly, ten µg of RNA were used in a total volume of 500 µl containing 20 units of TURBO DNase, incubated for 30 minutes at 37°C, immediately followed by RNeasy (Qiagen) cleanup and elution in 30 µl of RNase-free water. Following DNase treatment, RNA integrity was assessed using Agilent RNA 6000 Nano kit and 2100 Bioanalyzer instrument (both Agilent Technologies).
High-Capacity cDNA Reverse Transcription Kit with RNase Inhibitor (Applied Biosystems) was used for cDNA synthesis. Initially, to ensure linear conversion of the transcripts, the dynamic range of reverse transcription reaction was tested by performing a standard curve with cDNA, synthesised using various input amounts of pooled RNA. Total RNA (250 ng per reaction) and random primers were used for cDNA synthesis. To obtain sufficient amount of cDNA, several batches of 20 µl RT reactions were pooled, diluted 50-fold with RNase-free water and stored in single-use aliquots at −80°C until further use. All 21 samples were tested for presence of contaminating genomic DNA by running the mdoG assay with cDNA and the respective no reverse transcription (−RT) controls.
Escherichia coli strain K-12 substrain MG1655 complete genome (accession U00096) sequence was downloaded from NCBI database (www.ncbi.nlm.nih.gov) and used for primer design. Target sequence accession number, location of the amplicon, amplicon length and primer sequences for each assay can be found in table S2. Primers were designed using Primer Express software (Applied Biosystems) and optimized for annealing temperature of 60°C. Each primer pair and amplicon were checked for secondary structure formation using Oligo Tool (Integrated DNA technologies, http://eu.idtdna.com/analyzer/Applications/OligoAnalyzer/).

[2] = test system: E. coli MG1655; format: cell-based, Escherichia coli; settings: 4 hours
[3] = qPCR, 20 minutes exposure vs non-treated bacteria, REST 2009 randomisation test

Row | Molecule | Result, recA [1, 3] | Result, rpoS [1, 3] | Result, umuC [1, 3] | MIC50 ([2]; 50% reduction of CFUs vs control, Mueller Hinton Broth, 37°C, five replicates, repeated twice) | MIC50 ([2]; unit as printed in legend of Figure 1) | fold upregulation, marR [1] | fold upregulation, phoP [1] | fold upregulation, phoQ [1]
1 | CC1(C)S[C@@H]2[C@H](NC(=O)[C@H](N)c3ccccc3)C(=O)N2[C@H]1C(=O)O [Ampicillin] | NDE | UP (1.3-fold) | UP (1.37-fold) | – | – | – | – | –
2 | GIGKFLKKAKKFGKAFVKILKK-NH2 (C-terminus assumed) [Pexiganan] | – | – | – | 1.6 µg/mL | 1.6 µg | 4.05 fold | 3.07 fold | 2.45 fold

Where two headings read alike, the source gives them in different places. Ends that are not written are not given here.
